Experimental data from patent US6251605A, “Yeast cells having mutations in Cav1 and uses therefor” (priority 1999, dated 2001).

Amino acid sequences for entries named in this document (tags omitted). A change or cut given only in a name is not applied to a line headed by its entry.
UniProt P32745: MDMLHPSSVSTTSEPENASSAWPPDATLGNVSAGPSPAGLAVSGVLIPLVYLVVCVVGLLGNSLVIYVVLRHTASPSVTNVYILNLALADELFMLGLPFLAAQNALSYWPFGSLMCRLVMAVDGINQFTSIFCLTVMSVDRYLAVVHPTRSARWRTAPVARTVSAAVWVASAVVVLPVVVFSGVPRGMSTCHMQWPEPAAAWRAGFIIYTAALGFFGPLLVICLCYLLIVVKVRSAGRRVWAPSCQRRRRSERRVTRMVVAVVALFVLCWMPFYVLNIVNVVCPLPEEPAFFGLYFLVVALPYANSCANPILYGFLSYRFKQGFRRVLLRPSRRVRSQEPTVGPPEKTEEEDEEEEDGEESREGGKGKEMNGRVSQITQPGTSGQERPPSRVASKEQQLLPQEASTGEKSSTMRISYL
UniProt P30874: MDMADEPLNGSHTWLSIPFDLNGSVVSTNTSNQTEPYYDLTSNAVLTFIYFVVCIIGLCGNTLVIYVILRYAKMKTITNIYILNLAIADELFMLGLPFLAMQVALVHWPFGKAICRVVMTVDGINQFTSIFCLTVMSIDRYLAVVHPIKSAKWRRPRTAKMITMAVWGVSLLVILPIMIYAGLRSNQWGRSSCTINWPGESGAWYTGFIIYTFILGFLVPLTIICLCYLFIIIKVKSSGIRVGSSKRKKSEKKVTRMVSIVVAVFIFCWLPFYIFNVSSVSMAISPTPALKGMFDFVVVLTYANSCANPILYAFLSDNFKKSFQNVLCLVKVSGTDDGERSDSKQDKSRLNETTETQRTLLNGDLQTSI

Key:
SSTR3 receptor = SSTR3 receptor (Homo sapiens, UniProt P32745); experiment: β-galactosidase assay in yeast expressing SSTR3; settings: 2 hours incubation
[1] = target: T1, somatostatin receptor 2 (SSTR2) (Homo sapiens, UniProt P30874); experiment: β-galactosidase assay in yeast expressing SSTR2; format: cell-based; settings: CY14803 (cav1) versus CY9434 (wild type), 2 hours incubation
T1 construct: expressed in transfected cells; host or cells: S. cerevisiae CY9434 (wild type) and CY14803 (cav1), plasmid Cp3776

## somatostatin-14
SSTR3 receptor; cav1 background (CY14803)
  ligand induced stimulation of the pheromone pathway (β-galactosidase activity): 2 fold
SSTR3 receptor; wild type (CY9434)
  ligand-induced β-galactosidase activity: negligible increase
[1]
  increase of ligand-induced level of β-galactosidase activity in cav1 background: 2-3 fold
